According to patent US20090220562A1, “Osteogenic and anti-adipogenic oxysterols” (priority 2005, published 2009):

System: M2-10B4 marrow stromal cells
Experiment: Alkaline phosphatase (ALP) activity assay on whole cell extracts of M2-10B4 marrow stromal cells
Assay type: cell-based, mouse
Conditions: pretreatment; cyclopamine 1-10 μM, DKK-1 1 μg/ml
Method: Cells: M2-10B4 mouse marrow stromal cell line obtained from American Type Culture Collection (ATCC, Rockville, Md., U.S.A.) was derived from bone marrow stromal cells of a (C57BL/6J x C3H/HeJ) Fl mouse, and support human and murine myelopoiesis in long-term cultures (as per ATCC) and have the ability to differentiate into osteoblastic and adipocytic cells. Unless specified, these cells were cultured in RPMI 1640 containing 10% heat-inactivated FBS, and supplemented with 1 mM sodium pyruvate, 100 U/ml penicillin, and 100 U/ml streptomycin (all from Irvine Scientific).
Cells were always treated at 90% confluence. […]
(A) M2 cells at confluence were pretreated for 4 hours with control vehicle (C) or 10 μM COX-1 inhibitor SC-560 (SC) in osteogenic medium as described earlier. […] After 3 days, ALP activity was measured as described earlier. […] (B) M2 cells were treated as described in (A) and after 10 days matrix mineralization in cultures was quantified by a ^45Ca incorporation assay as described earlier. […] After 8 days, total RNA was isolated and analyzed for osteocalcin (Osc) and […] expression by Northern blotting as previously described. […] After 3 days, ALP activity was measured as previously described. […] After 10 days, matrix mineralization in cultures was quantified using a ^45Ca incorporation assay as previously described. […]
ALP activity was measured after 2 days, as described. […]

CC1=C2C[C@H]3[C@@H](CC=C4C[C@@H](O)CC[C@@]43C)[C@@H]2CC[C@]12O[C@@H]1C[C@H](C)CN[C@H]1[C@H]2C [cyclopamine, reference compound]
effect on SS-induced alkaline phosphatase (ALP) activity: inhibited
